Structures are written as SMILES. The list shows a part of the results, in another mix than the full data. Calls of active or inactive are those of the source. Rule as the data show it: active = inhibition above about 50%; inactive = the rest.

Protein sequences, listed by entry. Tags and fused reporters are not part of them.
UniProt O75030, whole entry: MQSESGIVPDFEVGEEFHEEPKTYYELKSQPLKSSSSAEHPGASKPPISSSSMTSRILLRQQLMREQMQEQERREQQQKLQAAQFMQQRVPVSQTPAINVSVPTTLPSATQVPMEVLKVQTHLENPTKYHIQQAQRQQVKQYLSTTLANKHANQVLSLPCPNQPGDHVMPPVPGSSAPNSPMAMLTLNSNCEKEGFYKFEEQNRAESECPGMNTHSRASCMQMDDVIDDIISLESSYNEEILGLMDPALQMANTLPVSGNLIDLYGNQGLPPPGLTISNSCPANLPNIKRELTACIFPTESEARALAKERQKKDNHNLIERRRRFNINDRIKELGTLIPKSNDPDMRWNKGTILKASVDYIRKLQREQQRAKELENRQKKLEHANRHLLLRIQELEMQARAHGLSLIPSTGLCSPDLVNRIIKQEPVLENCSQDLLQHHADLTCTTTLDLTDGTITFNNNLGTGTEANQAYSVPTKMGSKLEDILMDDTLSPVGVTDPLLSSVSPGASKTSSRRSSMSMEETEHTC

A word on the inhibition: it is the relative decrease from the control value, in per cent.

The experiment deals with Microphthalmia-associated transcription factor (Homo sapiens) (UniProt O75030). The experiment is described as follows: MITF inhibitors, primary screen, biochemical, AlphaScreen, human (AID 1259374).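 Also: 0% = vehicle wells with protein.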 The following applies: AlphaScreen MITF homodimerization, bead proximity signal; at 2.6 µM; active compounds read high. On the technique in general: Alpha assays give light when donor and acceptor beads are brought close together.
Consider `CCN1CCC(Nc2ccc(Cl)cc2)CC1`, for which the inhibition was inactive: 3.61%.
As for `COc1ccc(CCN2CCC(N(Cc3ccco3)C(C)=O)CC2)cc1`, the inhibition was inactive: 8.09%.
For the compound `COc1ccc(NC2CCN(CCc3cccs3)CC2)cc1`, the inhibition was inactive: 13.5%.
Turning to `O=C(NCC1(N2CCCCC2)CCCCC1)c1cccc([N+](=O)[O-])c1`, the inhibition was inactive: 0.1%.
For `O=C(NCC1(N2CCOCC2)CCCCC1)c1cc(=O)[nH]c2ccccc12`, the inhibition was inactive: 4.46%.
On to `CN1CCN(CCOC(=O)C(O)(c2ccccc2)c2ccccc2)CC1`, for which the inhibition is inactive: 0.21%.
As to `COc1ccccc1/C=C/CN1CCN(C(C)=O)CC1`, the inhibition is inactive: -1.89%.
As to `COc1cc(OC)c(C(=O)NCC2(N(C)C)CCCCC2)cc1OC`, the inhibition was inactive: 14%.
As for `Cc1ccc(C(=O)O)cc1N(CCCl)CCCl`, the inhibition is inactive: 12.3%.
Next, `COc1ccc(CN(CCCl)CCCl)cc1Cl`: inactive: 14.8%.
Regarding `FC(F)(F)Oc1ccc(NC2CCNCC2)cc1`, the inhibition is inactive: 9.93%.
As for `CCN1CCC(Nc2ccccc2F)CC1`, the inhibition is inactive: 24.9%.
With `CCCOc1ccc(C(=O)NCC2(N(C)C)CCCCC2)cc1OC`, the inhibition was inactive: -4.84%.
As for `Cc1cc(C(=O)NCC2(N3CCOCC3)CCCCC2)c2ccccc2n1`, the inhibition is inactive: 1.04%.
`O=C(NCC1(N2CCCCC2)CCCCC1)c1cncc(Br)c1`: the inhibition was inactive: 6.34%.
Next, `CN1CCC(Nc2cccc(F)c2)CC1`: inactive: 22.4%; `COc1cccc(OC)c1CN1CCC(Nc2ccccc2)CC1`: inactive: -1.08%.
Consider `COc1ccc(C(=O)NCC2(N3CCCCC3)CCCCC2)cc1`, for which the inhibition is inactive: -1.21%.
Regarding `CCCN1CCC(Nc2ccc(OC)c(OC)c2)CC1`, the inhibition is inactive: 16.9%.
On to `COc1ccc(C(=O)NCC2(N3CCCCC3)CCCCC2)c(OC)c1OC`, for which the inhibition is inactive: -9.28%.
On to `CC1CN(CCc2ccccc2)CCC1=O` (stereo not given), for which the inhibition is inactive: 0.76%.
Next, `N#CC1(Nc2ccccc2)CCN(Cc2ccccc2)CC1`: inactive: 7.06%; `CCOC(=O)N1CCC(Nc2ccc(OC)cc2)CC1`: inactive: 15.7%.
Take `CN(CCOC(=O)C(O)(c1ccccc1)c1ccccc1)C(C)(C)C`: the inhibition was inactive: 16.8%.
Consider `COc1ccc(NC2CCN(CCc3ccccn3)CC2)cc1`, for which the inhibition is inactive: 0.31%.
Regarding `CCOC(=O)N1CCC(Nc2ccc(F)cc2)CC1`, the inhibition is inactive: -0.41%.
Next, `CN(C)P(=O)(OC(C)(C)C(Cl)(Cl)Cl)SCCCCl` (stereo not given): inactive: -18.4%; `CCCN1CCC(Nc2ccc(F)cc2)CC1`: inactive: 28.1%.
For the compound `O=C1CCN(Cc2ccccc2)CC1`, the inhibition is inactive: -0.31%.
As to `CC(=O)N1CCc2ccc(N(C(=O)C(C)(C)C)C3CCN(Cc4ccccc4)CC3)cc21`, the inhibition is inactive: 3.25%.
